For this test, the target named is VCB (VHL-ElonginC-ElonginB) (Homo sapiens), P40337. The settings on record: modification not given.

By UniProt entry, the sequences of proteins in these tests, tags left out.
VCB (VHL-ElonginC-ElonginB) (Homo sapiens), P40337, UniProt P40337, whole entry, chain 1 of 3: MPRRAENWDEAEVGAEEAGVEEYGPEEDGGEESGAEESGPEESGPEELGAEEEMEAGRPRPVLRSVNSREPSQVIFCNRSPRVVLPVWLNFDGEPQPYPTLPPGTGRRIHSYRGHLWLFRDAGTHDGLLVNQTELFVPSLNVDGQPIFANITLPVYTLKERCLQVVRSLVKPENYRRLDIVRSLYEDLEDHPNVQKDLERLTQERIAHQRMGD

B1: HIF-1α peptide (FAM-labelled, JC9), Q16665 (peptide)
chain: LEMLAPYIPMDDDFQLRSF
The Kd is the free concentration of one partner at which half of the binding sites on the other are occupied at equilibrium, for simple one-to-one binding. Read a low Kd as higher affinity. With B1, the Kd came out at 1.5 nM.

Source of the values: paper PMC6600871 (Nature chemical biology, 2019).
